The values that follow come from patent US20180236024A1 (STC UNM, published 2018).

Assay [1] deals with T1, GFP-TRIM20 (full-length human TRIM20) (human, UniProt O15553 1-781).
T1 construct: also called T20; wild type TRIM20; not shown: GFP tag
T1 sequence: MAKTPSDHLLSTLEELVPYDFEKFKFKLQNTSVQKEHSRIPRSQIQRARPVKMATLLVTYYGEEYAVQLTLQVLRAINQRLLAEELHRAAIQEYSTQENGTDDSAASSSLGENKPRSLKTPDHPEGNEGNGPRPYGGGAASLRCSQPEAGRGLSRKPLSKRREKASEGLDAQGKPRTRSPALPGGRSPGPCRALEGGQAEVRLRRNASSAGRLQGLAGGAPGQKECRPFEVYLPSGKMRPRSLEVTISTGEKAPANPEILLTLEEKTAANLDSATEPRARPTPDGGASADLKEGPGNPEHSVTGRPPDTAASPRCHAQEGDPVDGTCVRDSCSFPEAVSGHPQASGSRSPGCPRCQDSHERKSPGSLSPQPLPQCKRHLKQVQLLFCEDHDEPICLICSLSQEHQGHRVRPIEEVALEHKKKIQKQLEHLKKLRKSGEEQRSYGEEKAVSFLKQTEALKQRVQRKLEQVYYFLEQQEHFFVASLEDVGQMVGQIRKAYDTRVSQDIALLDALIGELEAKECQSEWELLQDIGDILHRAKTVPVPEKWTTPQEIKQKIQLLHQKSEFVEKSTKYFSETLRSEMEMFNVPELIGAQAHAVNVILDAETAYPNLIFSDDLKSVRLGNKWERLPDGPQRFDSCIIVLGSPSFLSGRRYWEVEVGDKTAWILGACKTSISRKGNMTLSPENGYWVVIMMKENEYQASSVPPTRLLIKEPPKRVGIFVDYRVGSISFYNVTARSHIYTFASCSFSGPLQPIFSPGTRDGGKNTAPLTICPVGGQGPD
The assay can be described thus: co-IP of GFP-TRIM20 with endogenous ATG16L1.

Assay [2] has as its target T1, GFP-TRIM20 (full-length human TRIM20). The assay can be described thus: co-IP of GFP-TRIM20 with Flag-TRIM21, HEK293 cell extracts.

B1: ATG16L1 (other, UniProt Q676U5 1-607, looked up)
chain: MSSGLRAADFPRWKRHISEQLRRRDRLQRQAFEEIILQYNKLLEKSDLHSVLAQKLQAEKHDVPNRHEISPGHDGTWNDNQLQEMAQLRIKHQEELTELHKKRGELAQLVIDLNNQMQRKDREMQMNEAKIAECLQTISDLETECLDLRTKLCDLERANQTLKDEYDALQITFTALEGKLRKTTEENQELVTRWMAEKAQEANRLNAENEKDSRRRQARLQKELAEAAKEPLPVEQDDDIEVIVDETSDHTEETSPVRAISRAATKRLSQPAGGLLDSITNIFGRRSVSSFPVPQDNVDTHPGSGKEVRVPATALCVFDAHDGEVNAVQFSPGSRLLATGGMDRRVKLWEVFGEKCEFKGSLSGSNAGITSIEFDSAGSYLLAASNDFASRIWTVDDYRLRHTLTGHSGKVLSAKFLLDNARIVSGSHDRTLKLWDLRSKVCIKTVFAGSSCNDIVCTEQCVMSGHFDKKIRFWDIRSESIVREMELLGKITALDLNPERTELLSCSRDDLLKVIDLRTNAIKQTFSAPGFKCGSDWTRVVFSPDGSYVAAGSAEGSLYIWSVLTGKVEKVLSKQHSSSINAVAWSPSGSHVVSVDKGCKAVLWAQY
notes: Flag-tagged overexpressed or endogenous, depending on the experiment; also called Flag-ATG16L1; endogenous ATG16L1
As for B1, the binding result in assay [1] is reported as “binds”.

B2: TRIM21 expressed in cells (other)
chain: MASAARLTMMWEEVTCPICLDPFVEPVSIECGHSFCQECISQVGKGGGSVCPVCRQRFLLKNLRPNRQLANMVNNLKEISQEAREGTQGERCAVHGERLHLFCEKDGKALCWVCAQSRKHRDHAMVPLEEAAQEYQEKLQVALGELRRKQELAEKLEVEIAIKRADWKKTVETQKSRIHAEFVQQKNFLVEEEQRQLQELEKDEREQLRILGEKEAKLAQQSQALQELISELDRRCHSSALELLQEVIIVLERSESWNLKDLDITSPELRSVCHVPGLKKMLRTCAVHITLDPDTANPWLILSEDRRQVRLGDTQQSIPGNEERFDSYPMVLGAQHFHSGKHYWEVDVTGKEAWDLGVCRDSVRRKGHFLLSSKSGFWTIWLWNKQKYEAGTYPQTPLHLQVPPCQVGIFLDYEAGMVSFYNITDHGSLIYSFSECAFTGPLRPFFSPGFNDGGKNTAPLTLCPLNIGSQGSTDY
notes: GFP-tagged in the co-IP with ULK1 and Beclin 1, Flag-tagged in the co-IP with GFP-TRIM20; The clone was bought from DNASU; also called GFP-TRIM21; T21
On to B2, for which the binding result in assay [2] is “binds”.
